From patent publication US20040197294A1, “Cosmetic and/or pharmaceutical preparations” (priority 2001, published 2004) come the findings set out here.

Data set [1] relates to pig's epidermis. The experiment in a line: Dermatological compatibility: transepidermal water loss (TEWL), gravimetric. As to conditions: 1.5% by weight partial glyceride or glycerol ether in 17% by weight Plantapon PS 10, pH 5.5; skin treated 30 minutes at 40° C.; lower = better compatibility.
In data set [2] the test system is pig's epidermis. As to conditions: pH 5.5.

Like-named read-outs stand apart in the source and are kept apart here.

Take “Stearic acid monoglyceride (>90) [Example 6]”: the “TEWL [%-rel] = [treated/untreated * 100] − 100%” value with pig's epidermis [1] turned out to be 15.0 %-rel.

For “Stearic acid mono/diglyceride (65:35) [Example 5]”, the “TEWL [%-rel] = [treated/untreated * 100] − 100%” value with pig's epidermis [2] turned out to be 21.5 %-rel.

For “Glycerol monocaprylate (>90) [Example 4]”, the “TEWL [%-rel] = [treated/untreated * 100] − 100%” value with pig's epidermis [1] is given as 6.5 %-rel.
